From PubChem
Nrf2 block – inhibitors of Nrf2 signaling; A549 ARE-Fluc reporter, luciferase luminescence, 18-24 h; Potency, µM (highest dose often 46 µM), without a hit: top-dose activity change, negative = inhibition, most hits filed as inhibitors; 360,000 compounds, 2.1% hits; note: potency is the fitted concentration of half-maximal effect; % is set by controls: 0 for no effect and ±100 for the full control effect; nearly all actives have a fitted effect of over 60% in size
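In this cell-based qHTS, ARE-driven firefly luciferase in A549 cells reports Nrf2 activity; the luminescent signal after BugLite lysis is the measured value, with a prior CellTiter-Fluor read for cell health.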
Glioma ERSR ind – ER stress response induction in glioma; U87-MG GRP78 promoter luciferase reporter, 16 h; Potency, µM, without a hit: at the top dose activation, usual class: activators; 420,000 compounds, 0.02% hits; AID 602332; note: potency is the fitted concentration of half-maximal effect; series mostly up to about 76 µM; % of control where 0% means no effect; nearly all actives have a fitted effect of over 35% in size
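Stably transfected U87-MG glioma cells carrying a GRP78-based luciferase sensor; 16 h compound incubation. Luminescence end-point read 10 min after Bright-Glo addition at room temperature.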
A549 viability – counter-screen for Nrf2 inhibitors: cytotoxicity in A549 cells. Potency, µM (highest dose often 46 µM), without a hit: at the top dose activity change, negative = cytotoxicity, usual class: inhibitors. 390,000 compounds, 0.16% hits. A549 ARE-Fluc cells, CellTiter-Fluor viability, 18-24 h. AID 504648; note: potency is the fitted concentration of half-maximal effect; % is set by controls: 0 for no effect and ±100 for the full control effect
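A549 ARE_Fluc cells in 5% FBS OPTI-MEM were exposed to compounds in concentration-response for 18-24 h at 37 deg C. Viability was read by CellTiter-Fluor fluorescence (Ex 405/Em 525) after 30 min, before the luciferase read.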
Nrf2 activator – activators of Nrf2 (ARE) signaling; AREc32 ARE-luciferase reporter (MCF7-derived line), luminescence, 24 h; 410,000 compounds, 0.31% hits; Potency, µM (titrated, usually from 46.1 µM), without a hit: at the highest dose activation, most hits filed as activators; note: potency is the fitted concentration of half-maximal effect; % of control where 0% means no effect; nearly all actives have a fitted effect of over 65% in size
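AREc32 cells carrying an ARE-driven firefly luciferase, 1000 cells/well in OPTI-MEM with 5% FBS, dosed after overnight attachment and incubated 24 hr at 37 deg C. Steady-Glo luminescence read after 30 min at RT.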
TSG101-PTAP inh – blocks PTAP/TSG101 interaction to inhibit HIV-1 budding | Fluorescence polarization, FITC-PTAP peptide / Tsg101 binding | Potency, µM (titrated, usually from 115 µM), for the others: at the top dose activity change, negative = inhibition, usual class: inhibitors | Q99816 | AID 493005 | 340,000 tested, under 10 active; active = well fitted inhibition curve with a large enough effect in the main read-out, with a control signal flat, not every such curve was filed as active; inconclusive = small, poorly fitted or top-dose-only effect, or effect the other way, or a change in a side signal; inactive = no such curve, though single readings can be large or run the other way; note: potency is the fitted concentration of half-maximal effect; % of control where 0% means no effect
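Tsg101 binding domain (10 uM final) was mixed with compound and a FITC-labeled PTAP peptide (50 nM final) in HEPES pH 7.5 buffer with NaCl, Tween 20, EDTA and TCEP; fluorescence polarization was read after 20 min at r.t.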
miR-21 reporter – miR-21 reporter, rising signal | AID 2288 | HeLa miR-21 FLuc reporter, luciferase, 48 h | 340,000 tested, under 10 active | Potency, µM (titrated, usually from 38.3 µM), for the others: at the top dose reporter change, positive = more light; active = well fitted rising curve with a large enough effect; inconclusive = small, poorly fitted or top-dose-only effect; inactive = no such curve, though single readings can be large or run the other way;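 also: % of control where 0% means no effect; miR-21 action dims this reporter so a rising signal means less miR-21 action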
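HeLa cells endogenously expressing miR-21, stably carrying CMV-driven firefly luciferase with a downstream miR-21 binding site, 2000 cells/well. Titrations up to approximately 40 uM, 48 hours; luciferase luminescence read.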
Starred values were filed as active, the others as inactive; ? = inconclusive; · = no result given. The list is not random: actives were taken first. Their share in the collection is about 2.1%. Unless noted, calls come from the whole dose curve; as a rule, active = well fitted curve in the direction sought with a large enough effect; inconclusive = small, poorly fitted or top-dose-only effect, or another doubt; inactive = no such curve, though single readings can be large; an effect the other way counts as inactive or inconclusive.

SMILES | Nrf2 block | Glioma ERSR ind | A549 viability | Nrf2 activator | TSG101-PTAP inh | miR-21 reporter
CC(=O)Nc1ccc(C(=O)N/N=C/c2cc(Br)cc(Br)c2O)cc1 | 14.6µM* | -2.6% | -11.7% | -0.9% | -5.7% | 0.5%
CC(C)C(=O)Nc1ccc(C(=O)N/N=C/c2cc(Br)cc(Br)c2O)cc1 | ? | 3.8% | ? | -0.2% | 4.7% | 0.1%
COC(=O)C1=C(C(=O)OC)[C@]2([C@H]3CCCCN[C@@H](Cc4ccccc4)C(=O)N3Cc3ccccc3)C=C[C@H]1O2 | 23.1µM* | -3.7% | -5.0% | 0.1% | 1.2% | ·
COC(=O)C1=C(C(=O)OC)[C@]2([C@H]3C/C=C\CN[C@@H](Cc4ccccc4)C(=O)N3Cc3ccccc3)C=C[C@H]1O2 | · | -3.7% | · | · | · | ·
O=C(NCC1Cc2cccc(-c3cccnc3)c2O1)c1cc(-c2ccccc2)n[nH]1 (configuration not stated) | · | -0.5% | · | · | · | ·
O=S(=O)(c1ccc2c(c1)OCCO2)N1CCN(S(=O)(=O)c2ccc(F)c(F)c2F)CC1 | 4.8% | · | -3.6% | · | · | ·
O=C1C(Cl)=C(Nc2ccccc2O)C(=O)N1c1ccccc1 | 17.7% | 4.3% | -10.0% | ? | 0.0% | -23.8%
COc1ccccc1N1C(=O)C(Cl)=C(Nc2ccccc2O)C1=O | 12.1% | 1.1% | 1.2% | 12.6µM* | -5.4% | 0.4%
NC(=O)c1ccsc1NC(=O)COC(=O)Cc1cccc2ccccc12 | 4.11µM* | -9.8% | -17.3% | 1.0% | -3.3% | 13.8%
NC(=O)c1ccsc1NC(=O)COC(=O)Cc1c[nH]c2ccccc12 | ? | -3.5% | -12.6% | 2.7% | -2.9% | ·
COc1ccc(-n2c(SCc3cccnc3)nc3c(c2=O)SCC3)cc1OC | ? | -3.4% | 0.2% | -1.1% | -6.9% | 4.0%
COc1cccc(-n2c(SCc3ccccn3)nc3c(c2=O)SCC3)c1 | 1.84µM* | 0.8% | -11.7% | -0.4% | -1.1% | -7.0%

4 compounds picked at random from the list so far:
SMILES | Nrf2 block | Glioma ERSR ind | A549 viability | Nrf2 activator | TSG101-PTAP inh | miR-21 reporter
COC(=O)C1=C(C(=O)OC)[C@]2([C@H]3CCCCN[C@@H](Cc4ccccc4)C(=O)N3Cc3ccccc3)C=C[C@H]1O2 | 23.1µM* | -3.7% | -5.0% | 0.1% | 1.2% | ·
CC(=O)Nc1ccc(C(=O)N/N=C/c2cc(Br)cc(Br)c2O)cc1 | 14.6µM* | -2.6% | -11.7% | -0.9% | -5.7% | 0.5%
CC(C)C(=O)Nc1ccc(C(=O)N/N=C/c2cc(Br)cc(Br)c2O)cc1 | ? | 3.8% | ? | -0.2% | 4.7% | 0.1%
O=S(=O)(c1ccc2c(c1)OCCO2)N1CCN(S(=O)(=O)c2ccc(F)c(F)c2F)CC1 | 4.8% | · | -3.6% | · | · | ·

(further entries)
SMILES | Nrf2 block | Glioma ERSR ind | A549 viability | Nrf2 activator | TSG101-PTAP inh | miR-21 reporter
COc1ccc(OC)c(-c2cc(C3CCN(c4cc(Cl)nc(N)n4)CC3)[nH]n2)c1 | ? | -9.4% | -17.4% | 1.6% | -0.3% | ?
COc1ccc(-c2cc(C3CCN(c4cc(Cl)nc(N)n4)CC3)[nH]n2)cc1 | 13µM* | -0.3% | ? | -0.4% | -4.6% | 20.5%
COc1ccccc1OCC(=O)N(Cc1nc(-c2ccccc2)no1)C(C)C | 13µM* | -2.5% | -12.0% | 2.2% | -8.6% | -10.5%
Cc1cc(Br)ccc1OCC(=O)N(Cc1nc(-c2ccccc2)no1)C(C)C | 18.4µM* | -4.6% | -1.7% | 0.6% | -4.1% | 0.5%
CC(C)c1c(C(=O)NCc2ccccn2)cnn1-c1nccc(-c2ccccc2F)n1 | · | -0.8% | · | · | · | ·
Cc1cccc(C(=O)NCC(=O)OC(C(=O)Nc2cc(C(F)(F)F)ccc2Cl)c2ccccc2)c1 (configuration not stated) | 8.1% | · | -1.5% | · | · | ·
CC(C)(C)OC(=O)N1CCC(c2nnc(SCc3ccccc3)o2)CC1 | 11.6µM* | -8.5% | -12.8% | 8.9% | · | -7.0%
C/C(=N\Nc1ccc([N+](=O)[O-])cc1[N+](=O)[O-])c1cccnc1 | ? | -5.5% | -16.4% | 5.7% | -1.5% | 3.0%
CC(C)=NNc1cnnc2ccc([N+](=O)[O-])cc12 | · | -1.2% | · | 3.55µM* | · | ·
CC(=O)Nc1ccc(C(=O)N2CCCC(n3cc(C(=O)NCC(C)C)nn3)C2)cc1 (configuration not stated) | · | 0.3% | · | · | · | ·
Cc1cc(-c2sccc2C)nc(-n2cccc2)n1 | 10.2% | 2.6% | -5.1% | 5.62µM* | -6.8% | -13.3%
O=C(NC1CC1)[C@@H]1C[C@H](Sc2nc3ccccc3[nH]2)CN1CC1CCCCC1 | · | -3.8% | · | · | · | ·
S=C(NCCCN(Cc1ccc(Cl)c(Cl)c1)c1ccc(Br)cn1)NCCc1cnc[nH]1 | -12.1% | · | -2.9% | · | · | ·
Cc1c(C(=O)NCC2COc3ccccc3O2)oc2ccc(S(=O)(=O)N3CC(C)CC(C)C3)cc12 (configuration not stated) | -20.5% | -2.7% | 6.9% | 0.1% | -7.0% | 0.4%
Cc1c(C(=O)NCc2ccccn2)oc2ccc(S(=O)(=O)N3CCC4(CC3)OCCO4)cc12 | -27.6% | -8.6% | 9.8% | 1.5% | -4.7% | 1.7%
Cc1c(C(=O)O)oc2ccc(S(=O)(=O)N3CCCC3)cc12 | -6.8% | -4.4% | 0.1% | -0.2% | -3.6% | -4.1%
Cc1c(C(=O)NCc2ccccc2)oc2ccc(S(=O)(=O)N3CCC4(CC3)OCCO4)cc12 | 20.6µM* | -1.4% | 0.8% | 2.9% | -7.5% | 15.1%
O=C(NCC1COc2ccccc2O1)c1cc(S(=O)(=O)N2CCOCC2)c(Cl)cc1Cl (configuration not stated) | 23.1µM* | -0.4% | 0.5% | 2.5% | 4.3% | ·
CCCCN(C)C(=O)c1oc2ccc(S(=O)(=O)N3CCCCCC3)cc2c1C | 16.4µM* | -1.6% | -13.4% | 2.7% | · | -1.0%
Cc1c(C(=O)NCC2COc3ccccc3O2)oc2ccc(S(=O)(=O)N3CCOCC3)cc12 (configuration not stated) | 18.4µM* | -2.1% | -16.1% | -0.7% | 12.6% | 0.5%
CCOC(=O)c1ccc(N(C(=O)c2ccccc2)c2ccccc2)cc1 | · | -1.2% | · | · | · | ·
COc1cc(OC)cc(C(=O)NCC2Cc3cccc(-c4nc(C)cnc4C)c3O2)c1 (configuration not stated) | · | -0.8% | · | · | · | ·
CN(CC(=O)NCc1ccc(Cl)cc1)S(=O)(=O)c1ccc2[nH]c3c(c2c1)CCCC3 | 16.4µM* | -5.2% | -23.7% | -0.1% | · | ?
COc1cccc(CNC(=O)CN(C)S(=O)(=O)c2ccc3[nH]c4c(c3c2)CCCC4)c1 | -7.4% | -2.9% | 0.0% | 3.7% | · | 15.0%
Clc1cccc(Cl)c1CO/N=C/c1c(-c2ccccc2)nc2n1CCS2 | 18.4µM* | -2.4% | -24.1% | 0.0% | -7.4% | 5.4%
COC(=O)/C(C#N)=C/c1c(-c2ccccc2)nc2n1CCS2 | ? | 0.9% | 1.4% | 2.7% | -1.4% | 1.3%
Cc1ccc2c(CC(=O)N3CCOc4ccc(CN5C[C@@H](C)O[C@@H](C)C5)cc4C3)cc(=O)oc2c1 | · | -4.0% | · | · | · | ·
O=C1C=C(N2CCCCC2)c2ccccc2C1=O | 9.2µM* | -12.7% | 18.4µM* | -2.9% | -2.1% | ·
COCC(=O)Nc1cc(C(=O)N2CCCC2c2nccs2)c2c(c1)nc(-c1ccncc1)n2C (configuration not stated) | · | -2.2% | · | · | · | ·
NCCCCNc1ncnc2ccc(-c3ccc4c(c3)OCO4)cc12 | 0.0% | · | 17.3% | · | · | ·
Oc1cc(-c2nc3ccccc3s2)cc2c1OCCN(Cc1cn[nH]c1-c1ccc(Cl)cc1)C2 | · | -1.5% | · | · | · | ·
O=C(Cc1ccc(Cl)cc1Cl)Nc1ccncc1Cl | 9.2µM* | -5.6% | 1.9% | 0.3% | -0.6% | 12.6%
